Source: patent publication US12685777B2, “Compositions, systems, and methods for modulating a target gene” (The Board of Trustees of the Leland Stanford Junior …, priority 2022, dated 2026)

Assays:
BRD4^BD1 and BCL6^BTB [1] = biological target: T1, BRD4^BD1 and BCL6^BTB (Homo sapiens, UniProt O60885+P41182, C67R/C84N/C8Q); assay: Isothermal calorimetry (ITC), ternary complex titration; assay type: binding; conditions: mean±s.d. of 3 replicates, read-out: KD BRD4:TCIP1:BCL6 (ternary complex affinity)
T1 construct: contains amino acids 5-129 with three mutations, C8Q, C67R, C84N; 6xHis-TEV (N, cleaved yes)
Protocol: Tag-cleaved version of BCL6^BTB and BRD4^BD1 were used for experiments, in a VP-ITC machine. For binary assays with TCIP1, 400 μM BCL6^BTB or BRD4^BD1 were titrated from the syringe into a cell containing 40 μM TCIP1. For the binary protein-protein ITC, 330 μM BCL6^BTB was titrated into 68 μM BRD4^BD1. For binary assays with JQ1 or Bl3812, 100 μM BCL6^BTB or 350 μM BRD4^BD1 was titrated from the syringe into a cell containing 5 μM Bl3812 or 20 μM JQ1. For the ternary complex assays, 200 μM BRD4^BD1 was incubated with 10 μM TCIP1 in the cell (20-fold excess, to drive saturation of the binary complex), and 100 μM BCL6^BTB was titrated from the syringe, at 310 rpm stirring at 25° C. in a buffer containing 10 mM HEPES pH 7.5, 200 mM NaCl, 5% glycerol, 1 mM TCEP, and matched DMSO % (never more than 0.4%) in the syringe and the cell. The first one or two injections and outliers from instrument noise were routinely excluded. Data was fit to a one-site model using MicroCal LLC Origin software.
(§1) One reason for a broadening of the hook effect is the formation of cooperative protein-protein interactions induced by the drug, such as a molecular glue. Hypothesizing that TCIP1 may induce a molecular glue interaction important for potency, isothermal calorimetry (ITC) binary and ternary titrations of TCIP1, BRD4^BD1, and BCL6^BTB were carried out.

BRD4^BD1 and BCL6^BTB [2] = biological target: T1, BRD4^BD1 and BCL6^BTB; assay: Biolayer interferometry (BLI) of the ternary complex; assay type: binding; conditions: read-out: KD BRD4:TCIP1:BCL6 (ternary complex affinity)
Protocol: The tag-cleaved version of BRD4^BD1 and biotinylated BCL6^BTB were used for experiments, in a Gator Bio BLI machine. 50 μM of BRD4^BD1 was added to each well containing titrations of TCIP1 from 5.5 nM to 12 μM so that BRD4^BD1 would be in excess and drive binary BRD4^BD1:TCIP1 complex formation. 100 nM BCL6^BTB was loaded on the tip. Experiments were carried out at 25° C. After loading, association was carried out for 300s, dissociation for 300s, and a baseline for 30s. A TCIP1-only control was carried out for each concentration confirming that there was no binding between BCL6^BTB and TCIP1 on its own. […] Data was analyzed in GraphPad Prism with the association curves fit to the model “One-phase association” and the dissociation curves to the model “One-phase decay” to obtain kinetic parameters. The KD was obtained by fitting a “One-site binding” curve to the Span of each association curve vs. concentration of drug.
as §1

## CNC(=O)COc1cc2cc(Nc3nc(N4CCC(C(=O)NCCCCCCCNC(=O)C[C@@H]5N=C(c6ccc(Cl)cc6)c6c(sc(C)c6C)-n6c(C)nnc65)CC4)ncc3Cl)cc(OC)c2n(C)c1=O [TCIP1]
BRD4^BD1 and BCL6^BTB [1]
  Kd: 0.34 µM
BRD4^BD1 and BCL6^BTB [2]
  Kd: 0.316 ± 0.182 µM
